Experimental data reported in patent US11046672B2, “Indolinones compounds and their use in the treatment of fibrotic diseases” (RESPIVERT LIMITED, priority 2015, dated 2021).

Protein sequences, listed by entry. Tags and fused reporters are not part of them. Residues count along the entry.
UniProt P09619, 33-1106: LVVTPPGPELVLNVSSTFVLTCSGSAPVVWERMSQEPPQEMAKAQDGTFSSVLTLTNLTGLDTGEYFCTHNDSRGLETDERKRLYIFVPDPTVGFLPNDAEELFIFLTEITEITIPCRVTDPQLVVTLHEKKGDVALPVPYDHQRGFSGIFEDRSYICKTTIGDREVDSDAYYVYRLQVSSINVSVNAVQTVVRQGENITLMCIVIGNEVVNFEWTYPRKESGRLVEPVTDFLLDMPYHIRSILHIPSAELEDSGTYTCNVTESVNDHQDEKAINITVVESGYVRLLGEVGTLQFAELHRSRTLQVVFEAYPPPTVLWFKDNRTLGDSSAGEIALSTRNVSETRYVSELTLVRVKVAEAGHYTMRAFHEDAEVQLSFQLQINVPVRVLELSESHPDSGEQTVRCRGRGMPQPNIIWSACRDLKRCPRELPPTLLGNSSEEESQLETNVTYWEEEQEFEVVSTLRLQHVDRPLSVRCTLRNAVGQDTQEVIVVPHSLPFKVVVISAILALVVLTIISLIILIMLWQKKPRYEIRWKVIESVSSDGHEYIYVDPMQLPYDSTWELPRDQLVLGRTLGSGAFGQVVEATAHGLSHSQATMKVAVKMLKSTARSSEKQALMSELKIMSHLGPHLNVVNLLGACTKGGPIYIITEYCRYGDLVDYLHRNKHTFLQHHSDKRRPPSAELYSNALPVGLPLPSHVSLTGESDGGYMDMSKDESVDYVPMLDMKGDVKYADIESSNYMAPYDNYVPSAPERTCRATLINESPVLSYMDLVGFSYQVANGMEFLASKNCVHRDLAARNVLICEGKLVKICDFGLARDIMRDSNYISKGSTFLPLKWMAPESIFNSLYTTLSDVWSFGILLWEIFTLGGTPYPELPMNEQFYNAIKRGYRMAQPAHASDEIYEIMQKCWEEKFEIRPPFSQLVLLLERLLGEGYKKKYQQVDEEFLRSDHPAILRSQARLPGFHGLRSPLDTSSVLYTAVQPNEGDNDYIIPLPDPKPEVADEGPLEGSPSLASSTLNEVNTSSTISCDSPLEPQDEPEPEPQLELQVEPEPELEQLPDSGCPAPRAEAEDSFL

Target: PDGFRβ (Homo sapiens (Human), UniProt P09619)
Assay: Duration of action (washout) against PDGF-BB induced phosphorylation of PDGFRβ in human fetal lung fibroblast cells
Type: cell-based
Settings: MRC-5 cells, rhuPDGF-BB, experiments in Groups 1-4

SMILES: CNC(=O)CN1CCN(CCON(C)C(=O)c2ccc(N/C(=C3\C(=O)Nc4cc(C(=O)OC)c(C)cc43)c3ccccc3)cc2)CC1 [Example 9, (Z)-Methyl 5-methyl-3-(((4-(methyl(2-(4-(2-(methylamino)-2-oxoethyl)piperazin-1-yl)ethoxy)carbamoyl)phenyl)amino)(phenyl)methylene)-2-oxoindoline-6-carboxylate]
- % phos: percentage phosphorylation after wash-out relative to maximal phosphorylation (100%): 56.8%
